We go through seven compounds from patent US12616739B2, “GLP-1 prodrugs and uses thereof” (Novo Nordisk A/S, priority 2020, dated 2026).

The nature of the data set: Prodrug to drug conversion half-life in vitro, PBS pH 7.4, 37° C. The format is physicochemical. Here is the method:
General Methods for Measuring Conversion Half-Life
The assay was performed to investigate the conversion half-life of prodrug to drug of the prodrugs of the invention.
Peptide stock solutions were prepared by dissolving freeze-dried powder in PBS buffer to a target of 200 μM. PBS-buffer was Dulbecco's Phosphate Buffered Saline without CaCl2 and MgCl2, gibco 14190-094 adjusted to pH=7.4. The pH of the peptide stock solutions was adjusted to 7.4 with 0.02 M HCl or 0.02M NaOH. Samples were filled in Agilent HPLC vials with fixed insert. Vials were capped to prevent evaporation. The HPLC vials were incubated at 37° C. and samples were withdrawn at different time points over a period of 2 weeks, flash frozen at −80° C., and stored at −20° C. until analysis.
Sample analysis was carried out using UPLC coupled to UV detection at 215 nm and MS (UPLC-UV-MS). One μl of sample was injected on to a Waters Acquity UPLC with a flow-through-needle injection system and on to a Waters Acquity CSH C18 column (1*150 mm), with a particle size of 1.7 μm and held at 55° C. A flow-rate of 100 μl/min was delivered with a Binary solvent manager pump having 0.1% formic acid in water as solvent A and 0.1% formic acid in acetonitrile as solvent B. Gradient elution was carried out using 15-32% B from 0 to 4 min followed by 32 to 48% B from 4 to 54 min.
The identity of the prodrug was confirmed by MS and the peak purity, area %, from the UV signal at 215 nm was plotted as the natural logarithm against time and the slope (k) was used to calculate the first order half-life (T½)=T½=Ln(2)/k.
In the case of `CC[C@H](C)[C@H](NC(=O)[C@H](Cc1ccccc1)NC(=O)[C@H](CCC(=O)O)NC(=O)[C@H](CCCCNC(=O)COCCOCCNC(=O)COCCOCCNC(=O)CC[C@H](NC(=O)CCCCCCCCCCCCCCCCC(=O)O)C(=O)O)NC(=O)[C@H](C)NC(=O)[C@H](C)NC(=O)[C@H](CCC(N)=O)NC(=O)CNC(=O)[C@H](CCC(=O)O)NC(=O)[C@H](CC(C)C)NC(=O)[C@H](Cc1ccc(O)cc1)NC(=O)[C@H](CO)NC(=O)[C@H](CO)NC(=O)[C@@H](NC(=O)[C@H](CC(=O)O)NC(=O)[C@H](CO)NC(=O)[C@@H](NC(=O)[C@H](Cc1ccccc1)NC(=O)[C@@H](NC(=O)CNC(=O)[C@H](CCC(=O)O)NC(=O)C(C)(C)NC(=O)[C@H](Cc1c[nH]cn1)NC(=O)CN(CCNC(=O)[C@H](CO)NC(=O)CC[C@H](NC(=O)CCCCCCCCCCCCCCCCC(=O)O)C(=O)O)C(=O)CN)[C@@H](C)O)[C@@H](C)O)C(C)C)C(=O)N[C@@H](C)C(=O)N[C@@H](Cc1c[nH]c2ccccc12)C(=O)N[C@@H](CC(C)C)C(=O)N[C@H](C(=O)N[C@@H](CCCNC(=N)N)C(=O)NCC(=O)N[C@@H](CCCNC(=N)N)C(=O)NCC(=O)O)C(C)C` [Chem. 29, Gly-N^α-2-[[(2S)-2-[[(4S)-4-carboxy-4-(17-carboxyheptadecanoylamino)butanoyl]amino]-3-hydroxypropanoyl]amino]ethyl-Gly-semaglutide], the half-life is 218 h. As to `CC[C@H](C)[C@H](NC(=O)[C@H](Cc1ccccc1)NC(=O)[C@H](CCC(=O)O)NC(=O)[C@H](CCCCNC(=O)COCCOCCNC(=O)COCCOCCNC(=O)CC[C@H](NC(=O)CCCCCCCCCCCCCCCCC(=O)O)C(=O)O)NC(=O)[C@H](C)NC(=O)[C@H](C)NC(=O)[C@H](CCC(N)=O)NC(=O)CNC(=O)[C@H](CCC(=O)O)NC(=O)[C@H](CC(C)C)NC(=O)[C@H](Cc1ccc(O)cc1)NC(=O)[C@H](CO)NC(=O)[C@H](CO)NC(=O)[C@@H](NC(=O)[C@H](CC(=O)O)NC(=O)[C@H](CO)NC(=O)[C@@H](NC(=O)[C@H](Cc1ccccc1)NC(=O)[C@@H](NC(=O)CNC(=O)[C@H](CCC(=O)O)NC(=O)C(C)(C)NC(=O)[C@H](Cc1c[nH]cn1)NC(=O)CN(CCNC(=O)CNC(=O)CC[C@H](NC(=O)CCCCCCCCCCCCCCCCC(=O)O)C(=O)O)C(=O)CN)[C@@H](C)O)[C@@H](C)O)C(C)C)C(=O)N[C@@H](C)C(=O)N[C@@H](Cc1c[nH]c2ccccc12)C(=O)N[C@@H](CC(C)C)C(=O)N[C@H](C(=O)N[C@@H](CCCNC(=N)N)C(=O)NCC(=O)N[C@@H](CCCNC(=N)N)C(=O)NCC(=O)O)C(C)C` [Chem. 30, Gly-N^α-2-[[2-[[(4S)-4-carboxy-4-(17-carboxyheptadecanoylamino)butanoyl]amino]acetyl]amino]ethyl-Gly-semaglutide], the half-life was 202 h. With `CC[C@H](C)[C@H](NC(=O)[C@H](Cc1ccccc1)NC(=O)[C@H](CCC(=O)O)NC(=O)[C@H](CCCCNC(=O)COCCOCCNC(=O)COCCOCCNC(=O)CC[C@H](NC(=O)CCCCCCCCCCCCCCCCC(=O)O)C(=O)O)NC(=O)[C@H](C)NC(=O)[C@H](C)NC(=O)[C@H](CCC(N)=O)NC(=O)CNC(=O)[C@H](CCC(=O)O)NC(=O)[C@H](CC(C)C)NC(=O)[C@H](Cc1ccc(O)cc1)NC(=O)[C@H](CO)NC(=O)[C@H](CO)NC(=O)[C@@H](NC(=O)[C@H](CC(=O)O)NC(=O)[C@H](CO)NC(=O)[C@@H](NC(=O)[C@H](Cc1ccccc1)NC(=O)[C@@H](NC(=O)CNC(=O)[C@H](CCC(=O)O)NC(=O)C(C)(C)NC(=O)[C@H](Cc1c[nH]cn1)NC(=O)CN(CCNC(=O)[C@H](CCC(=O)O)NC(=O)CCCCCCCCCCCCCCCCC(=O)O)C(=O)CN)[C@@H](C)O)[C@@H](C)O)C(C)C)C(=O)N[C@@H](C)C(=O)N[C@@H](Cc1c[nH]c2ccccc12)C(=O)N[C@@H](CC(C)C)C(=O)N[C@H](C(=O)N[C@@H](CCCNC(=N)N)C(=O)NCC(=O)N[C@@H](CCCNC(=N)N)C(=O)NCC(=O)O)C(C)C` [Chem. 31, Gly-N^α-2-[[(4S)-4-carboxy-2-(17-carboxyheptadecanoylamino)butanoyl]amino]ethyl-Gly-semaglutide], the half-life was 192 h. As to `CC[C@H](C)[C@H](NC(=O)[C@H](Cc1ccccc1)NC(=O)[C@H](CCC(=O)O)NC(=O)[C@H](CCCCNC(=O)COCCOCCNC(=O)COCCOCCNC(=O)CC[C@H](NC(=O)CCCCCCCCCCCCCCCCC(=O)O)C(=O)O)NC(=O)[C@H](C)NC(=O)[C@H](C)NC(=O)[C@H](CCC(N)=O)NC(=O)CNC(=O)[C@H](CCC(=O)O)NC(=O)[C@H](CC(C)C)NC(=O)[C@H](Cc1ccc(O)cc1)NC(=O)[C@H](CO)NC(=O)[C@H](CO)NC(=O)[C@@H](NC(=O)[C@H](CC(=O)O)NC(=O)[C@H](CO)NC(=O)[C@@H](NC(=O)[C@H](Cc1ccccc1)NC(=O)[C@@H](NC(=O)CNC(=O)[C@H](CCC(=O)O)NC(=O)C(C)(C)NC(=O)[C@H](Cc1c[nH]cn1)NC(=O)CN(CCCNC(=O)CC[C@H](NC(=O)CCCCCCCCCCCCCCC(=O)O)C(=O)O)C(=O)CN)[C@@H](C)O)[C@@H](C)O)C(C)C)C(=O)N[C@@H](C)C(=O)N[C@@H](Cc1c[nH]c2ccccc12)C(=O)N[C@@H](CC(C)C)C(=O)N[C@H](C(=O)N[C@@H](CCCNC(=N)N)C(=O)NCC(=O)N[C@@H](CCCNC(=N)N)C(=O)NCC(=O)O)C(C)C` [Chem. 32, Gly-N^α-3-[[(4S)-4-carboxy-4-(15-carboxypentadecanoylamino)butanoyl]amino]propyl-Gly-semaglutide], the half-life was 86.4 h. Take `CC[C@H](C)[C@H](NC(=O)[C@H](Cc1ccccc1)NC(=O)[C@H](CCC(=O)O)NC(=O)[C@H](CCCCNC(=O)COCCOCCNC(=O)COCCOCCNC(=O)CC[C@H](NC(=O)CCCCCCCCCCCCCCCCC(=O)O)C(=O)O)NC(=O)[C@H](C)NC(=O)[C@H](C)NC(=O)[C@H](CCC(N)=O)NC(=O)CNC(=O)[C@H](CCC(=O)O)NC(=O)[C@H](CC(C)C)NC(=O)[C@H](Cc1ccc(O)cc1)NC(=O)[C@H](CO)NC(=O)[C@H](CO)NC(=O)[C@@H](NC(=O)[C@H](CC(=O)O)NC(=O)[C@H](CO)NC(=O)[C@@H](NC(=O)[C@H](Cc1ccccc1)NC(=O)[C@@H](NC(=O)CNC(=O)[C@H](CCC(=O)O)NC(=O)C(C)(C)NC(=O)[C@H](Cc1c[nH]cn1)NC(=O)CN(CCCCCNC(=O)CC[C@H](NC(=O)CCCCCCCCCCCCCCC(=O)O)C(=O)O)C(=O)CN)[C@@H](C)O)[C@@H](C)O)C(C)C)C(=O)N[C@@H](C)C(=O)N[C@@H](Cc1c[nH]c2ccccc12)C(=O)N[C@@H](CC(C)C)C(=O)N[C@H](C(=O)N[C@@H](CCCNC(=N)N)C(=O)NCC(=O)N[C@@H](CCCNC(=N)N)C(=O)NCC(=O)O)C(C)C` [Chem. 33, Gly-N^α-5-[[(4S)-4-carboxy-4-(15-carboxypentadecanoylamino)butanoyl]amino]pentyl-Gly-semaglutide]: the half-life is 91.2 h.

`CC[C@H](C)[C@H](NC(=O)[C@H](Cc1ccccc1)NC(=O)[C@H](CCC(=O)O)NC(=O)[C@H](CCCCNC(=O)COCCOCCNC(=O)COCCOCCNC(=O)CC[C@H](NC(=O)CCCCCCCCCCCCCCCCC(=O)O)C(=O)O)NC(=O)[C@H](C)NC(=O)[C@H](C)NC(=O)[C@H](CCC(N)=O)NC(=O)CNC(=O)[C@H](CCC(=O)O)NC(=O)[C@H](CC(C)C)NC(=O)[C@H](Cc1ccc(O)cc1)NC(=O)[C@H](CO)NC(=O)[C@H](CO)NC(=O)[C@@H](NC(=O)[C@H](CC(=O)O)NC(=O)[C@H](CO)NC(=O)[C@@H](NC(=O)[C@H](Cc1ccccc1)NC(=O)[C@@H](NC(=O)CNC(=O)[C@H](CCC(=O)O)NC(=O)C(C)(C)NC(=O)[C@H](Cc1c[nH]cn1)NC(=O)CN(CCCCCCNC(=O)CC[C@H](NC(=O)CCCCCCCCCCCCCCC(=O)O)C(=O)O)C(=O)CN)[C@@H](C)O)[C@@H](C)O)C(C)C)C(=O)N[C@@H](C)C(=O)N[C@@H](Cc1c[nH]c2ccccc12)C(=O)N[C@@H](CC(C)C)C(=O)N[C@H](C(=O)N[C@@H](CCCNC(=N)N)C(=O)NCC(=O)N[C@@H](CCCNC(=N)N)C(=O)NCC(=O)O)C(C)C` [Chem. 34, Gly-N^α-6-[[(4S)-4-carboxy-4-(15-carboxypentadecanoylamino)butanoyl]amino]hexyl-Gly-semaglutide]: the half-life was 88.8 h.

With `CC[C@H](C)[C@H](NC(=O)[C@H](Cc1ccccc1)NC(=O)[C@H](CCC(=O)O)NC(=O)[C@H](CCCCNC(=O)COCCOCCNC(=O)COCCOCCNC(=O)CC[C@H](NC(=O)CCCCCCCCCCCCCCCCC(=O)O)C(=O)O)NC(=O)[C@H](C)NC(=O)[C@H](C)NC(=O)[C@H](CCC(N)=O)NC(=O)CNC(=O)[C@H](CCC(=O)O)NC(=O)[C@H](CC(C)C)NC(=O)[C@H](Cc1ccc(O)cc1)NC(=O)[C@H](CO)NC(=O)[C@H](CO)NC(=O)[C@@H](NC(=O)[C@H](CC(=O)O)NC(=O)[C@H](CO)NC(=O)[C@@H](NC(=O)[C@H](Cc1ccccc1)NC(=O)[C@@H](NC(=O)CNC(=O)[C@H](CCC(=O)O)NC(=O)C(C)(C)NC(=O)[C@H](Cc1c[nH]cn1)NC(=O)CN(CCCCNC(=O)CC[C@H](NC(=O)CCCCCCCCCCCCCCC(=O)O)C(=O)O)C(=O)[C@@H](N)CCCNC(=N)N)[C@@H](C)O)[C@@H](C)O)C(C)C)C(=O)N[C@@H](C)C(=O)N[C@@H](Cc1c[nH]c2ccccc12)C(=O)N[C@@H](CC(C)C)C(=O)N[C@H](C(=O)N[C@@H](CCCNC(=N)N)C(=O)NCC(=O)N[C@@H](CCCNC(=N)N)C(=O)NCC(=O)O)C(C)C` [Chem. 35, Arg-N^α-4-[[(4S)-4-carboxy-4-(15-carboxypentadecanoylamino)butanoyl]amino]butyl-Gly-semaglutide, reference compound], the half-life was 16.8 h.
